Source: ChEMBL document CHEMBL1158185, “Synthesis and potent antileukemic activities of 10-benzyl-9(10H)-acridinones” (Bioorg Med Chem, 2008)
pIC50: −log10 of the molar value. Some compounds may have been tested in ways that are not shown here.

Test system: CCRF-CEM
Test: Antiproliferative activity against human CCRF-CEM cells after 48 hrs by MTT assay

O=C1CCN(Cc2ccccc2)CC1
pIC50: < 4.00

COc1cc(CN2CCC(=O)CC2)cc(OC)c1
pIC50: < 4.00
